Laboratory results published in US11135236B2, “Retinoic acid receptor gamma agonists to attenuate anthracycline-induced cardiotoxicity” (Northwestern University, priority 2018, dated 2021).
Like-named read-outs stand apart in the source and are kept apart here. Marks after values point to notes of the source that are not given here.

Assays:
S427L-1 hiPSC-CMs = conditions: for S427L-1: LD50: 72 h
[1] = tested on: RARG expression and TOP2B signaling; experiment: real-time PCR of RARG expression and TOP2B signaling in S427L hiPSC-CMs; type: cell-based, human; conditions: 1 μM CD1530, 3 μM doxorubicin 24 h
Experimental: Quantitative Real-time PCR. […] All PCR reactions were performed in triplicate in a 384-well plate format using TaqMan Gene Expression Master Mix in a QuantStudio 5 Real-Time PCR System (both Applied Biosystems) with following TaqMan Gene Expression Assays (Life Technoloiges): 18S (Hs99999901_s1), ACTB (Hs01060665_g1), GAPDH (Hs02786624_g1), NANOG (Hs02387400_g1), POU5F1 (Hs00999632_g1), SOX2 (Hs01053049_s1), KLF4 (Hs00358836_m1), LIN28 (Hs00702808_s1), MYC (Hs00153408_m1), UTF1 (Hs00747497_g1), DNMT3B (Hs01003405_m1), TERT (Hs99999022_m1), ZFP42 (Hs00399279_m1), TP53 (Hs99999147_m1), RARG (Hs01559234_m1), TOP2B (Hs00172259_m1), PPARGC1A (Hs00173304) and PPARGC1B (Hs00993805_m1). Relative quantification of gene expression was calculated using 2^−ΔΔCt method (Schmittgen and Livak, 2008), normalized to the reference 18S, ACTB, or GAPDH and untreated control samples as specified in the figure legends.

S427L hiPSC-CMs [2] = experiment: hiPSC-CM cell viability after 72 h doxorubicin (CellTiter-Glo); type: cell-based, human
S427L hiPSC-CMs [3] = experiment: caspase 3 and 7 activity after 24 h doxorubicin (Caspase 3/7-Glo); type: cell-based, human
[4] = doxorubicin LD50 with agonist 0.3 μM pre/co-treatment, 0 μM agonist: 0.600
[5] = doxorubicin LD50 with agonist 1 μM pre/co-treatment, 0 μM agonist: 0.600
[6] = doxorubicin LD50 with agonist 10 μM pre/co-treatment, 0 μM agonist: 0.600

Compound	S427L-1: LD50 (S427L-1 hiPSC-CMs; [4])	S427L-1: LD50 (S427L-1 hiPSC-CMs; [5])	S427L-1: LD50 (S427L-1 hiPSC-CMs; [6])	increase of doxorubicin LD50 (S427L-1 hiPSC-CMs; S427L hiPSC-CMs, agonist 1 μM, 72 h doxorubicin)	effect on cell viability after doxorubicin treatment (S427L-1 hiPSC-CMs; pre/co-treatment 0.3, 1, 10 μM, doxorubicin 72 h, hiPSC-CMs)	RARG expression [1]	TOP2B expression [1]	genes involved in mitochondrial biogenesis [1]	S427L-1: LD50 (S427L-1 hiPSC-CMs; doxorubicin LD50, agonist 0 μM)	half-maximal lethal dose (LD50), cell viability (S427L hiPSC-CMs [2])	LD50, caspase 3 and 7 activity (S427L hiPSC-CMs [3])
CC1=C(/C=C/C(C)=C/C=C/C(C)=C/C(=O)O)C(C)(C)CCC1 [ATRA, 3,7-Dimethyl-9-(2,6,6-trimethyl-1-cyclohexen-1-yl)-2E,4E,6E,8E-nonatetraenoic acid]	0.951** μM	2.111*** μM	2.750*** μM								
O=C(O)c1ccc2cc(-c3ccc(O)c(C45CC6CC(CC(C6)C4)C5)c3)ccc2c1 [CD437, 6-(4-Hydroxy-3-tricyclo[3.3.1.13,7]dec-1-ylphenyl)-2-naphthalenecarboxylic acid]	2.772** μM	1.692*** μM	1.558*** μM								
O=C(O)c1ccc(-c2ccc3cc(O)c(C45CC6CC(CC(C6)C4)C5)cc3c2)cc1 [CD1530, 4-(6-Hydroxy-7-tricyclo[3.3.1.13,7]dec-1-yl-2-naphthalenyl)benzoic acid]	1.520** μM	4.428*** μM	4.537*** μM	7 fold	most effective	increased RARG expression	repressed TOP2B expression	upregulated			
COc1cccc2c1C(=O)c1c(O)c3c(c(O)c1C2=O)C[C@@](O)(C(=O)CO)C[C@@H]3O[C@H]1C[C@H](N)[C@H](O)[C@H](C)O1 [doxorubicin]									0.600 µM	0.63 µM	1.228 µM
